What all share (assay): ≥ marks a high value that may be exact or a test limit, other limits are often not marked, values filed in µg/mL are converted to µM
The subject of test [1] is Erwinia amylovora PMV 6076.
Test [2] deals with Pseudomonas syringae pv. syringae EPS 94.
Test [3] concerns Xanthomonas campestris pv. Vesicatoria 2133-2.

SMILES strings stand for the structures. Values after ≈ are worked out from the molar mass of the structure shown.

For orientation: MIC means the lowest concentration found to suppress growth. As to `CC[C@H](C)[C@H](NC(=O)[C@H](CCC(N)=O)NC(=O)[C@@H](NC(=O)[C@H](C)NC(=O)[C@H](CCC(N)=O)NC(=O)CNC(=O)[C@@H](NC(=O)[C@@H](NC(=O)[C@H](C)NC(=O)[C@@H](NC(=O)[C@H](C)N)C(C)C)C(C)C)C(C)C)[C@@H](C)O)C(=O)N[C@@H](C)C(=O)N[C@@H](CCCCN)C(=O)N[C@@H](CCCCN)C(=O)N[C@@H](CCCCN)C(=O)N[C@@H](CC(C)C)C(=O)N[C@@H](Cc1ccccc1)C(=O)N[C@@H](CCCCN)C(=O)N[C@@H](CCCCN)C(=O)N[C@H](C(=O)N[C@@H](CC(C)C)C(=O)N[C@@H](CCCCN)C(=O)N[C@@H](Cc1ccc(O)cc1)C(=O)N[C@@H](CC(C)C)C(=O)N[C@@H](CCCCN)C(=O)N[C@@H](CC(=O)O)C(=O)N[C@@H](CCC(=O)O)C(=O)N[C@@H](CC(C)C)C(=O)O)[C@@H](C)CC` [AVAVVGQATQIAKKKLFKKILKYLKDEL], the MIC in test [1] is 20 µM (≈ 62.9 µg/mL); in test [2] it was 20 µM (≈ 62.9 µg/mL); in test [3] it was 6.12 µM (≈ 19.3 µg/mL).

As for `CC[C@H](C)[C@H](NC(=O)CNC(=O)[C@H](C)NC(=O)[C@@H]1CCCN1C(=O)CNC(=O)[C@H](C)NC(=O)[C@H](CC(C)C)NC(=O)[C@H](Cc1ccc(O)cc1)NC(=O)[C@H](CCCCN)NC(=O)[C@H](CC(C)C)NC(=O)[C@@H](NC(=O)[C@H](CCCCN)NC(=O)[C@H](CCCCN)NC(=O)[C@H](Cc1ccccc1)NC(=O)[C@H](CC(C)C)NC(=O)[C@H](CCCCN)NC(=O)[C@@H](N)CCCCN)[C@@H](C)CC)C(=O)NCC(=O)N[C@@H](CCCCN)C(=O)N[C@@H](Cc1ccccc1)C(=O)N[C@@H](CC(C)C)C(=O)N[C@@H](Cc1cnc[nH]1)C(=O)N[C@@H](CO)C(=O)N[C@@H](C)C(=O)N[C@@H](CCCCN)C(=O)O` [KKLFKKILKYLAGPAGIGKFLHSAK], the MIC in test [1] came out at 6.12 µM (≈ 16.9 µg/mL); in test [2], 3.54 µM (≈ 9.75 µg/mL); in test [3], 1.77 µM (≈ 4.87 µg/mL).

Turning to `CC[C@H](C)[C@H](NC(=O)[C@H](CC(C)C)NC(=O)[C@H](C)NC(=O)[C@@H]1CCCN1C(=O)[C@H](CC(C)C)NC(=O)CNC(=O)[C@@H](NC(=O)[C@@H](NC(=O)[C@H](C)NC(=O)[C@@H]1CCCN1C(=O)CNC(=O)[C@H](C)NC(=O)[C@H](CC(C)C)NC(=O)[C@H](Cc1ccc(O)cc1)NC(=O)[C@H](CCCCN)NC(=O)[C@H](CC(C)C)NC(=O)[C@@H](NC(=O)[C@H](CCCCN)NC(=O)[C@H](CCCCN)NC(=O)[C@H](Cc1ccccc1)NC(=O)[C@H](CC(C)C)NC(=O)[C@H](CCCCN)NC(=O)[C@@H](N)CCCCN)[C@@H](C)CC)[C@@H](C)O)[C@@H](C)O)C(=O)N[C@@H](CO)C(=O)N[C@@H](Cc1c[nH]c2ccccc12)C(=O)N[C@@H](CCCCN)C(=O)N[C@@H](CC(=O)O)C(=O)N[C@@H](CCC(=O)O)C(=O)N[C@@H](CC(C)C)C(=O)O` [KKLFKKILKYLAGPATTGLPALISWKDEL], the values for the MIC in test [1], in test [2] and in test [3] were 6.12 µM (≈ 19.9 µg/mL), 3.54 µM (≈ 11.5 µg/mL) and 6.12 µM (≈ 19.9 µg/mL), respectively.

For the origin of these results see DBAASP.
